# Only a part is listed here, and it is no random draw. Activity calls are given as the source filed them. Cut-off read from the data, not from the text of the source: active = inhibition above about 8%; inactive = the rest.
# System: VIM-2 metallo-beta-lactamase [Pseudomonas aeruginosa]
# Experiment: P. aeruginosa VIM-2 enzyme inhibition – biochemical, epi-absorbance, HTS, confirmation (AID 1860);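 note: 0% = enzyme with vehicle and 100% = no enzyme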
# Conditions: purified VIM-2 enzyme, nitrocefin absorbance; at 5.6 µM; hits give high values
smiles,measurement,value
Nc1cccc2c([As](=O)(O)O)cccc12,inhibition,active: 8.66%

# — PubChem BioAssay AID1860 (The Scripps Research Institute Molecular Screening Center, 2009)
